Assay results from PMC12048556.

Target: BIM (UniProt O43521)
Assay: HA-tag co-IP, BIM blot
Details: sites S62

| binding against the reference (reference: wild-type HA-BCL-XL in MGH1112-1 EV) | binding against the reference (reference: wild-type HA-BCL-XL in H2030 EV) | Substance |
| --- | --- | --- |
| stronger | – | BCL-XL (from UniProt Q07817) S62A in MGH1112-1 EV |
| – | stronger | BCL-XL (from UniProt Q07817) S62A in H2030 EV |
